Values quoted from earlier work as cited in article PMC9728581, “Population pharmacokinetics and dosing optimization of unbound teicoplanin in Chinese adult patients” (Frontiers in Pharmacology, 2022).

Details: cited from earlier work

In the case of teicoplanin, the “clearance of unbound teicoplanin in the previous study” value (ref Byrne et al., 2018) is listed as 7.29 L/h, the “volume of distribution of total teicoplanin, previous PopPK study” value (ref Fu et al., 2021) is listed as 83.1 L and the half-life of elimination (ref Li and Wang, 2016, Gao et al., 2020) is listed as 30 to 180 h.
